The test concerns the target T1, Proteinase-activated receptor 2 (Homo sapiens) (UniProt P55085).
T1 sequence (whole entry): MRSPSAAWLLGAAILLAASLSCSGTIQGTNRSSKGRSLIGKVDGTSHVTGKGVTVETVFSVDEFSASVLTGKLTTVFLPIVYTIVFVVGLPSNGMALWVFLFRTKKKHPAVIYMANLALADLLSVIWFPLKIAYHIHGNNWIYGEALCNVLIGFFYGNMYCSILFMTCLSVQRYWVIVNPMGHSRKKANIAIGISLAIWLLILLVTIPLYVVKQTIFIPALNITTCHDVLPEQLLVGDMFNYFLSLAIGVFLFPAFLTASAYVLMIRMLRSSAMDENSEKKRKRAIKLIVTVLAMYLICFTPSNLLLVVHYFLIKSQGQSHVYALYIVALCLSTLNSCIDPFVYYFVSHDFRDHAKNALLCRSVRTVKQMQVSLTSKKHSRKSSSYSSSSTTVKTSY
The experiment in a line: Selectivity ratio of EC50 for agonist activity at PK1-tagged PAR2 (unknown origin) expressed in HEK293 cells assessed as induction of beta-arrestin recruitment incubated for 90 mins by Pathhunter chemiluminescent assay to EC50 for agonist activity at human PAR2 expressed in HEK293T cells assessed as induction of Galphaq-stimulated IP1 formation incubated for 2 hrs by FRET assay. Type of test: cell-based.

SMILES strings stand for the structures.

Regarding `Cc1cc(C(=O)N[C@@H](CC2CCCCC2)C(=O)NCc2ccccc2CC(N)=O)on1`, the Ratio EC50 was 14.

The record behind these values is ChEMBL document CHEMBL4616713, “Discovery of Novel Nonpeptidic PAR2 Ligands” (ACS Med Chem Lett, 2020).
